Test: Water solubility / water insolubility by visual observation
Assay type: physicochemical
Conditions: 0.4 g sample in 4 g distilled water, 20° C., 30 minutes
Protocol: As used herein and in the claims, a water-soluble compound means a compound having a solubility in water of 10 g/100 g H2O or more at 20° C.
4 g of distilled water and 0.4 g of a sample were sufficiently stirred at 20° C., allowed to stand for 30 minutes, and then visually observed. When white turbidity and biphasic separation were not observed, it was judged to be water soluble. When white turbidity or biphasic separation was observed, it was judged to be water insoluble.

Substance	water solubility / water insolubility
EO-modified bisphenol A dimethacrylate [BPE-1300N]	WATER-SOLUBLE
glycerin dimethacrylate [GDMA]	WATER-SOLUBLE
